Test results from patent US20230321123A1, “INHIBITORS OF PSEUDOMONAS AERUGINOSA VIRULENCE FACTOR LasB” (Helmholtz-Zentrum Für Infektionsforschung GmbH, priority 2020, published 2023).

Sequences of proteins named here, by UniProt entry; tags and fusion partners are left off. Residues count along the entry.
UniProt Q02RJ6, 198-498: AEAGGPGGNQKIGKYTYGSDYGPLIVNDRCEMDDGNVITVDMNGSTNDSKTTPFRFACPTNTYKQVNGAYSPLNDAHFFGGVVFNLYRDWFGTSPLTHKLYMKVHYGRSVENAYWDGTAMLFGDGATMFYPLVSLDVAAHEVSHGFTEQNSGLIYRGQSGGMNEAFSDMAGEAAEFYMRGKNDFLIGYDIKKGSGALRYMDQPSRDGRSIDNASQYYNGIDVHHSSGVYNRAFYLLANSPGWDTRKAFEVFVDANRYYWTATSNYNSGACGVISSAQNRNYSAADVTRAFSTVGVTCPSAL

Biological target: LasB (Pseudomonas aeruginosa, UniProt Q02RJ6)
Assay: biochemical
Set-up: species or system P. aeruginosa
Settings: IC50 against LasB

With `COc1ccc(NC(=O)C(S)CC(C)C)cc1OC` (stereo not shown) [Example 36] the IC50 was 730 ± 100 nM.
